# Test results from US6596719B1 (Actelio Pharmaceuticals Ltd., priority 1999, dated 2003).
# Amino acid sequences for entries named in this document (tags omitted). Residues count along the entry.
# UniProt P25101, 21-427: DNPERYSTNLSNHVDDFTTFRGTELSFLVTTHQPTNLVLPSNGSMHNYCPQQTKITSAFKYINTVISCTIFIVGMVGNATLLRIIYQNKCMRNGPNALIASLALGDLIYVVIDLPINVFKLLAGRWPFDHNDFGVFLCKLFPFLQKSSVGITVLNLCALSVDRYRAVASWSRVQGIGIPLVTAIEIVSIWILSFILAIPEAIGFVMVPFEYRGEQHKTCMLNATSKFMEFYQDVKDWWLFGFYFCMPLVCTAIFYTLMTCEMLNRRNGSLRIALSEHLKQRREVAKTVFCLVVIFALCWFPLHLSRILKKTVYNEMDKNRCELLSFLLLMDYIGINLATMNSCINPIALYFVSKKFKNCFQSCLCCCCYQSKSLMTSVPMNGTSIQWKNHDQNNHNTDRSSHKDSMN
# Tests used:
# [1] = molecular target: T1, human recombinant ETA receptors (Homo sapiens, UniProt P25101); experiment: Inhibition of endothelin binding to membranes from CHO cells carrying human ET receptors (ETA); conditions: membranes of CHO cells expressing human recombinant ETA receptors, 8 pM [125I]ET-1, 2 h at 20° C.
# T1 construct: expressed in transfected cells; host or cells: CHO cells (microsomal membranes)
# [2] = molecular target: T2, human recombinant ETB receptors (Homo sapiens, UniProt P24530); experiment: Inhibition of endothelin binding to membranes from CHO cells carrying human ET receptors (ETB); conditions: membranes of CHO cells expressing human recombinant ETB receptors, 8 pM [125I]ET-1, 2 h at 20° C.
# T2 construct: expressed in transfected cells; host or cells: CHO cells (microsomal membranes)
# T2 sequence (P24530 27-442): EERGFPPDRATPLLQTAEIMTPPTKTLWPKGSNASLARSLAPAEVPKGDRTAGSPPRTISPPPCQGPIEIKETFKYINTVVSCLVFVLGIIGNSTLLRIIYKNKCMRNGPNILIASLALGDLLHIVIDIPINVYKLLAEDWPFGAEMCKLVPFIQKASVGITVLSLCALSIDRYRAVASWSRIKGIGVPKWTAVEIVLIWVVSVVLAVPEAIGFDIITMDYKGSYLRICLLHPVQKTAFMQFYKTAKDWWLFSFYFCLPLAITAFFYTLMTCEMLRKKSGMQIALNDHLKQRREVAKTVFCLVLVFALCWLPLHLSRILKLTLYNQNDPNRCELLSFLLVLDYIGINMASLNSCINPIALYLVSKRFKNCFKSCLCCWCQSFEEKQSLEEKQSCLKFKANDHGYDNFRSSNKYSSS
# Procedure: 1) Inhibition of Endothelin Binding to Membranes from CHO Cells Carrying Human ET Receptors:
# For competition binding studies, membranes of CHO cells expressing human recombinant ETA or ETB receptors were used. Microsomal membranes from recombinant CHO cells were prepared and the binding assay made as previously described (Breu V., et al, FEBS Lett 1993; 334:210).
# The assay was performed in 200 uL 50 mM Tris/HCl buffer, pH 7.4, including 25 mM MnCl2, 1 mM EDTA and 0.5% (w/v) BSA in polypropylene microtiter plates. […]. […] After two h, the membranes were filtered on, filterplates containing GF/C filters (Unifilterplates from Canberra Packard S. A. Zürich, Switzerland). To each well, 50 uL of scintillation cocktail was added (MicroScint 20, Canberra Packard S. A. Zürich, Switzerland) and the filter plates counted in a microplate counter (TopCount, Canberra Packard S. A. Zürich, Switzerland).
# All the test compounds were dissolved, diluted and added in DMSO. […] […].
substance,measurement,setting,value
5-i.-propyl-N-[6-(ethoxy-2-benzenesulfonamido)-5-(o-methoxyphenoxy)-2-(4-pyridyl)-4-pyrimidinyl]pyridine-2-sulfonamide [Example 13],IC50,[1],885 nM
same,IC50,[2],69.2 nM
